Data published in article PMC9940855, “First-in-Class Dual Hybrid Carbonic Anhydrase Inhibitors and Transient Receptor Potential Vanilloid 1 Agonists Revert Oxaliplatin-Induced Neuropathy” (Journal of Medicinal Chemistry, 2023).

Tested on: oxaliplatin-induced neuropathic pain (cold allodynia)
Experiment: Cold plate test in mouse model of oxaliplatin-induced neuropathic pain
Conditions: p.o.; for pain-relieving effect, in words: 30 and 100 mg/kg; for pain-relieving effect (licking latency, Cold plate test), in words: acute, 10–100 mg/kg; for reversal of oxaliplatin hypersensitivity, in words: higher dose (100 mg/kg)

SMILES | pain-relieving effect, in words | pain-relieving effect (licking latency, Cold plate test), in words (day 15, listed as (R)-39a) | pain-relieving effect (licking latency, Cold plate test), in words (day 15, listed as (S)-39a) | reversal of oxaliplatin hypersensitivity, in words | pain-relieving effect (licking latency, Cold plate test), in words (day 15, listed as (R)-36a)
NS(=O)(=O)c1ccc(NC(=S)N[C@@H]2CCN(c3ccc(C(F)(F)F)cn3)C2)cc1 [39a, (R)-4-(3-(1-(5-(Trifluoromethyl)pyridin-2-yl)pyrrolidin-3-yl)thioureido)benzenesulfonamide] | significantly effective | far more effective and lasting compared to its (S)-counterpart | slightly better profile | completely reverting oxaliplatin hypersensitive | 
NS(=O)(=O)c1cccc(NC(=S)N[C@@H]2CCN(c3ccccn3)C2)c1 [36a, (R)-3-(3-(1-(Pyridin-2-yl)pyrrolidin-3-yl)thioureido)benzenesulfonamide] |  |  |  |  | dose-dependent effectiveness; also recorded: moderate and shorter relieving outcomes
NS(=O)(=O)c1ccc(NC(=S)N[C@H]2CCN(c3ccc(C(F)(F)F)cn3)C2)cc1 [39b, (S)-4-(3-(1-(5-(Trifluoromethyl)pyridin-2-yl)pyrrolidin-3-yl)thioureido)benzenesulfonamide] | significantly effective |  |  | completely reverting oxaliplatin hypersensitive | 

Entries after “also recorded” stand apart in the source; their conditions may differ.
